Experimental findings from PubChem BioAssay AID504734 (The Scripps Research Institute Molecular Screening Center, 2011) are described below.

Chains of the proteins cited; added tags and fusions are not shown.
UniProt Q9NR96, whole entry: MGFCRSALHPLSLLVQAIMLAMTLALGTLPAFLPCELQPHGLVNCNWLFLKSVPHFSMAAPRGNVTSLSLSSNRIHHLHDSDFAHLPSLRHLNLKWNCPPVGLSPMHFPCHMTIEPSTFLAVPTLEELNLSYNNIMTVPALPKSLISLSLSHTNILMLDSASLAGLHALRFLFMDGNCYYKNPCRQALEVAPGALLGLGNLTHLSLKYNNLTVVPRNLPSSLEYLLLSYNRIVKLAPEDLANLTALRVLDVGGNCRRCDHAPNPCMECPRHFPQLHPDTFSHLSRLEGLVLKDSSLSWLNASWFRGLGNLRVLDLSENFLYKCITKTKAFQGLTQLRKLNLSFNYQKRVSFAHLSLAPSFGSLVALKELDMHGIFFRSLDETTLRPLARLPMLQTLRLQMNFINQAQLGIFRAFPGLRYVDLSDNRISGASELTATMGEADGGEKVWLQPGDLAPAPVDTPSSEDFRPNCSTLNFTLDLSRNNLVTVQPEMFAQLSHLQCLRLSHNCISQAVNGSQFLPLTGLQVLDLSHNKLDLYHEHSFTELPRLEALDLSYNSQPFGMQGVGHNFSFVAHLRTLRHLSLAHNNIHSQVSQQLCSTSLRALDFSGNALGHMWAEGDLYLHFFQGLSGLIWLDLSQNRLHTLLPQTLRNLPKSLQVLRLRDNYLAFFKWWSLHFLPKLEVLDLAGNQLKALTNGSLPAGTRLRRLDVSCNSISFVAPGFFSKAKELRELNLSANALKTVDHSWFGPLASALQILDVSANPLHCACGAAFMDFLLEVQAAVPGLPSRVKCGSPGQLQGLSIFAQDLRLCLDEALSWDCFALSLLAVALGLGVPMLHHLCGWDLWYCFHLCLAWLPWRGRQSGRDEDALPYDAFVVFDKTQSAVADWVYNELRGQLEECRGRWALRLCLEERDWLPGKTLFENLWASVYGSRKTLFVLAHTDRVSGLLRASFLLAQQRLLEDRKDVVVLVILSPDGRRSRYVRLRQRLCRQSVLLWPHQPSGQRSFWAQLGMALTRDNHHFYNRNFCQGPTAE

The entries are a selection whose mix differs from that of the whole data set. Activity calls are given as the source filed them.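 How the source made its calls: active means inhibition above the mean over all tested compounds plus 3 SD (cut at about 21% in these data); inactive means the rest.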

The experiment has as its target Toll-like receptor 9 (Homo sapiens) + Myeloid differentiation primary response protein MyD88 (Homo sapiens) (UniProt Q9NR96+Q99836). As to the kind of experiment: inhibitors of TLR9-MyD88 association in cells, primary screen, cell-based, CHO, BLA complementation, fluorescence (AID 504734).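 Further: 0% = DMSO only wells and 100% = clavulanate BLA inhibitor control wells.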 Particulars: CHO BLA complementation TLR9-MyD88, CCF4 FRET ratio; at 4.98 µM; active compounds read high.
`CCC(=O)N(c1ccccc1)C1(COC)CCN(CCc2cccs2)CC1`: the inhibition is inactive: -4.75%.
For `CCC(=O)N(c1ccccc1)C1(COC)CCN(CCn2nnn(CC)c2=O)CC1` the value was inactive: 10.2%.

A word on the inhibition: it is the drop in the measured response relative to a control, in per cent.
